In US20080090254:

Biological target: T1, GST-poly(Glu, Tyr) substrate
T1 chain: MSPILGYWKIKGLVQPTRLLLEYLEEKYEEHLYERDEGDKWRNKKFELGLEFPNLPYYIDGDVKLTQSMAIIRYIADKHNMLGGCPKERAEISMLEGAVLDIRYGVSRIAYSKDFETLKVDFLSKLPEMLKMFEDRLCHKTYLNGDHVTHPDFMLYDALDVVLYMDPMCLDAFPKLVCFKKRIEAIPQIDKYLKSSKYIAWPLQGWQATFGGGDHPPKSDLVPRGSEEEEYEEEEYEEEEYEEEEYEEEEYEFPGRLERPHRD

B1: EGF Receptor 1 Kinase (protein)
chain: HIVRKRTLRRLLQERELVEPLTPSGEAPNQALLRILKETEFKKIKVLGSGAFGTVYKGLWIPEGEKVKIPVAIKELREATSPKANKEILDEAYVMASVDNPHVCRLLGICLTSTVQLITQLMPFGCLLDYVREHKDNIGSQYLLNWCVQIAKGMNYLEDRRLVHRDLAARNVLVKTPQHVKITDFGLAKLLGAEEKEYHAEGGKVPIKWMALESILHRIYTHQSDVWSYGVTVWELMTFGSKPYDGIPASEISSILEKGERLPQPPICTIDVYMIMVKCWMIDADSRPKFRELIIEFSKMARDPQRYLVIQGDERMHLPSPTDSNFYRALMDEEDMDDVVDADEYLIPQQGFFSSPSTSRTPLLSSLSATSNNSTVACIDRNGLQSCPIKEDSFLQRYSSDPTGALTEDSIDDTFLPVPEYINQSVPKRPAGSVQNPVYHNQPLNPAPSRDPHYQDPHSTAVGNPEYLNTVQPTCVNSTFDSPAHWAQKGSHQISLDNPDYQQDFFPKEAKPNGIFKGSTAENAEYLRVAPQSSEFIGA
B1 was tested, and the “phosphorylation of the substrate, Western blotting with anti-phosphotyrosine” value was “At + of all (i to vii) of FIG. 1, a single band was seen at positions where the phosphorylated GST-poly (Glu, Tyr) substrate appears”.
